# Source: PubChem (Broad Institute)
# HIV Env fusion – HIV envelope-mediated fusion inhibition; HeLa-JRFL Env/CEM21 cell fusion, luciferase; inhibition, % at 12.3 µM; hit rate 1.1% among 360,000; AID 651610;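 active = mean replicate inhibition score of at least 50 and every replicate individually at or above 50; inconclusive = only one of the two criteria met; inactive = mean below 50 and not all replicates reaching 50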;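 also: 0% = plate neutral controls and 100% = maraviroc near 300 nM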
# miR-122 sensor – blocks miR-122 activity in Huh7 sensor cells | Huh7 miR-122 Renilla luciferase sensor, 48 h; neutral wells = 0, positive control = 100 | hit rate 0.3% among 340,000 | activation (reporter increase), % at 12.5 µM | AID 602342;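 active = mean replicate activation score at least 90 and every replicate individually at or above 90; inconclusive = only one of the two criteria met; inactive = neither criterion met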;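 also: higher luciferase means less miR-122 activity so hits act as miR-122 inhibitors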
# PGC1a acetyl inh – modulators of PGC1a acetylation; hit rate 0.17% among 350,000; AID 651687; U2OS PGC1a acetylation, AlphaScreen anti-acetyl-lysine; with virally co-expressed GCN5 acetyltransferase; inhibition, % at 15.6 µM;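 active = every replicate shows inhibition of at least 40%; inconclusive = mean inhibition at least 40% but some replicate below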;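 also: 0% = neutral control wells and 100% = positive control wells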
# UUG fidelity – modulators of start codon recognition fidelity in yeast; AID 602363; activity score, % at 18.7 µM; S. cerevisiae UUG-firefly luciferase reporter, luminescence/redox ratio; 0.13% of 350,000 active;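 active = replicate mean at a twofold rise or more, about +100% in these data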;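 note: firefly luciferase made from a UUG start codon reports start codon fidelity; reporter light over untreated wells divided by growth signal over untreated wells; some hits fall short of that in this replicate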
# Cneo AK release – causes C. neoformans cell lysis. adenylate kinase release luminescence, 4 h; normalised: neutral wells 0, clomiphene wells 100. lysis activity, % at 15 µM. hit rate 0.2% among 360,000. AID 651654;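 active = mean lysis activity across replicates of at least 80%, whatever share of replicates individually reach that level; inactive = mean lysis activity below 80%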
#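 read-out = cell lysis signal | test system = log-phase Cryptococcus neoformans yeast cells | input = cells at 5 × 10^6 per mL | medium = fresh YPD growth medium | signal = luminescent adenylate kinase detection reagent | timing = 4 h at 37 °C static, read 1 h later | dosing = single dose | controls = Clomiphene as positive lysis control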
# FN deposit inh – fibronectin deposition inhibition | AH1F fibroblasts, Alexa488-fibronectin deposition fluorescence, overnight | inhibition, % at 12.6 µM | hit rate 0.086% among 350,000 | AID 743247;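 active = mean inhibition across replicates of 30% or more, regardless of how many single replicates reach that level; inconclusive = mean under 30% yet at least half of replicates reach 30%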;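 also: positive control wells lacked labelled fibronectin entirely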
#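 Material: AH1F fibroblast monolayer depositing Alexa488-labelled fibronectin into matrix | Input: 10000 AH1F cells/well | Medium: DMEM plus 2% serum, read in PBS | Reagent: Alexa488-fibronectin, 24 nM final in well | Compound dosing: One dose per compound, pinned | Schedule: 1 h adhesion, overnight exposure | Measured by: Fluorescence at 485 nm excitation, 525 nm emission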
# Starred values were filed as active, the others as inactive; ? = inconclusive; . = no result given; [ ] = another dose, or the depositor's remark. Sampled rows, rich in hits. Any-hit rate of the full collection: about 1.5%.
item | canonical_smiles | HIV Env fusion | miR-122 sensor | PGC1a acetyl inh
1 | Cc1ccc(NC(=O)C(=O)c2c(-c3ccccc3)cc3ccccn23)cc1S(=O)(=O)N1CCOCC1 | -27 | 247* | .
2 | CSc1ncccc1C(=O)OCC(=O)Nc1ccc(C)c(S(=O)(=O)N2CCOCC2)c1 | 76* | 10 | -8
3 | CCOc1ccc(S(=O)(=O)/N=C(/Nc2ccc(C)c(S(=O)(=O)N3CCOCC3)c2)c2ccccc2)cc1 | . | 107* | -17
4 | COc1ccc(OC2C(=O)N(Cc3ccc4c(c3)OCO4)C2c2sccc2C)cc1 (stereo not given) | . | 34 | -10
5 | CCN(CC(=O)Nc1ccc(OC)cc1)C(=O)CCS(=O)(=O)c1ccc(C)cc1 | . | -7 | .
6 | O=C(NCCc1ccccn1)C1CCCN(S(=O)(=O)Cc2ccccc2)C1 (stereo not given) | -27 | 0 | -3
7 | Nc1nn(-c2ccccc2)nc1C(=O)OCc1ccccc1F | . | . | 4
8 | Cc1ccccc1COC(=O)c1nn(-c2ccccc2)nc1N | -27 | . | .
9 | O=C(Cc1ccc(Cl)cc1)Nc1ccccc1Sc1ccccc1 | . | -7 | -12
10 | O=C(CCl)Nc1ccccc1Sc1ccccc1 | 21 | 0 | .
11 | Cn1c2ccccc2c(=O)c2cc(C#CC3(O)CCCCC3)ccc21 | -65 | -10 | -4
12 | Cc1cc2sc3ccc(C#CC4(O)CCCCC4)cc3c(=O)c2cc1C | 65* | -4 | -1
13 | C[C@H]1CN([C@@H](C)CO)S(=O)(=O)c2ccc(-c3ccccc3F)cc2O[C@@H]1CN(C)Cc1ccncc1 | 15[16.7 µM] | -13[16.7 µM] | -8
14 | CCCc1n(CC(O)COC2CCCCC2)c2ccccc2[n+]1C (stereo not given) | -8 | 3 | -12
15 | O=C(CC[C@H]1O[C@@H](n2ccc(=O)[nH]c2=O)[C@H](O)[C@@H]1O)NCCN1CCOCC1 | -60 | 2 | 4

item | UUG fidelity | Cneo AK release | FN deposit inh
1 | -9 | -2 | -8
2 | -3 | -3 | -3
3 | 2 | -1 | 4
4 | -18 | 0 | .
5 | -7 | 0 | -4
6 | -9 | 4 | -2
7 | . | . | .
8 | . | . | 31*
9 | -21 | 3 | .
10 | 509* | 2 | 4
11 | -11 | -25 | 9
12 | -9 | -3 | 0
13 | -10 | -2 | -1
14 | -16 | -1 | .
15 | -2 | -1 | 15

# Arranged by length of the SMILES (highest first): three of the compounds above.
item | canonical_smiles | HIV Env fusion | miR-122 sensor | PGC1a acetyl inh
3 | CCOc1ccc(S(=O)(=O)/N=C(/Nc2ccc(C)c(S(=O)(=O)N3CCOCC3)c2)c2ccccc2)cc1 | . | 107* | -17
6 | O=C(NCCc1ccccn1)C1CCCN(S(=O)(=O)Cc2ccccc2)C1 (stereo not given) | -27 | 0 | -3
7 | Nc1nn(-c2ccccc2)nc1C(=O)OCc1ccccc1F | . | . | 4

item | UUG fidelity | Cneo AK release | FN deposit inh
3 | 2 | -1 | 4
6 | -9 | 4 | -2
7 | . | . | .

# Remaining list, next part:
item | canonical_smiles | HIV Env fusion | miR-122 sensor | PGC1a acetyl inh
16 | CC1(C(=O)NS(=O)(=O)c2ccccc2Cl)CCN1C(=O)CCc1ccc(Cl)cc1Cl (stereo not given) | 4 | 1 | -1
17 | Cc1ccccc1S(=O)(=O)NC(=O)C1(C)CCN1C(=O)CCc1ccc(Cl)cc1Cl (stereo not given) | 71* | -3 | -1
18 | Cc1ccc(C(=O)OC(C(=O)Nc2ccc(Cl)cc2C(F)(F)F)c2ccccc2)cc1 (stereo not given) | -34 | . | 8
19 | O=C(OC(C(=O)Nc1ccc(Cl)cc1C(F)(F)F)c1ccccc1)c1c(Cl)cccc1Cl (stereo not given) | 73* | . | .
20 | Cc1ccc(NC(=O)CN(C)C(=O)Cn2ncc(Cl)c(Cl)c2=O)cc1 | -53 | -71 | .
21 | CN(C)c1cccc2c1C(=O)c1ccccc1C2=O | -5 | . | .
22 | O=C1c2cccc(Sc3ccccc3)c2C(=O)c2c(Sc3ccccc3)cccc21 | 13 | 1 | -7
23 | COc1ccc(-c2[nH]ncc2CN(C)CCN2CCOCC2)cc1F | -13 | . | -7
24 | COc1ccc(-c2[nH]ncc2CN(C)C(C)c2ccon2)cc1F (stereo not given) | 2 | -3 | 80*
25 | CC1(C)CC(N2CCN(c3ccccc3)CC2)=CC(=[N+]2CCCC2)C1 | 81* | -3 | 5
26 | CN(Cc1ccccc1)C1=CC(=[N+]2CCCC2)CC(C)(C)C1 | 60* | -9 | 6
27 | CCN(CC)C1=CC(=[N+]2CCCC2)CC(C)(C)C1 | ? | 14 | .
28 | O=C(c1ccncc1)N1CC2(C1)[C@H](c1ccccc1)[C@@H](CO)N2C(=O)CC1CC1 | . | . | 5
29 | CCc1ccc([C@H]2[C@@H]3C(=O)C[C@@H]4C(=O)N(C5CCCCC5)C(=O)[C@@H]4[C@@H]3CN2S(=O)(=O)c2ccc(C)cc2)cc1 | 155* | -6 | -25

item | UUG fidelity | Cneo AK release | FN deposit inh
16 | 8 | -2 | -3
17 | -32 | -2 | 4
18 | . | . | -4
19 | . | . | -5
20 | -13 | -1 | 36*
21 | . | . | .
22 | 119* | 4 | -13
23 | . | . | .
24 | . | . | 0
25 | -7 | -1 | 15
26 | -16 | -1 | -1
27 | -18 | 3 | -5
28 | . | . | .
29 | -2 | 3 | .
